This is an account of results in patent publication US20150118229A1, “JAK1 SELECTIVE INHIBITOR AND USES THEREOF” (ABBVIE INC., priority 2013, published 2015).

Read-outs that look alike come from different tables or passages of the source.

Data set [1] is described as follows: Pharmacokinetics in rat. The class given is in vivo. Conditions: oral 10 mg/kg/day, Day 29, mean (SD).
The conditions of data set [2]: 18 mg BID, Day 14, harmonic mean (pseudo % CV).
Data set [3] can be described thus: Human PK, multiple ascending dose Study M13-845 Substudy 1. Format: in vivo. To be noted: 12 mg BID, Day 14, harmonic mean (pseudo % CV); Western subjects.

Turning to `CC[C@@H]1CN(C(=O)NCC(F)(F)F)C[C@@H]1c1cnc2cnc3[nH]ccc3n12` [Compound 1, (3S,4R)-3-ethyl-4-(3H-imidazo[1,2-a]pyrrolo[2,3-e]pyrazin-8-yl)-N-(2,2,2-trifluoroethyl)pyrrolidine-1-carboxamide], the Cmax in data set [1] (rat F) was 0.652 (0.269) μg/mL; in data set [1] (rat M) it was 0.329 (0.172) μg/mL. Besides, the t1/2 is on record as 6.88 (54) hr in data set [2] (Chinese), 9.51 (70) hr in data set [2] (Japanese) and 7.6 (63) hr in data set [3].
